## Melting point values, as collected for the OPERA models

Melting points are in °C. The databases behind each value are named after "via".

c1ccc(-c2nnco2)cc1 has mp 36 °C (via OCHEM). Listed for Nc1nnc(C2CCCCC2)o1: mp 223 °C (via OCHEM). For O=C(O)c1cc(S(=O)(=O)Cl)ccc1F the data give mp 108 °C (via OCHEM). Listed for Cc1cc(C2C(=O)Oc3c2cc(C(C)(C)C)cc3C(C)(C)C)cc(C)c1O (stereo not drawn): mp 237.5 °C (via eChemPortal). The entry for CCOC(=O)c1c(-c2ccc(C)c(C)c2)csc1N lists mp 81.5 °C (via OCHEM). O=C(O)c1cnc2sccn2c1=O has mp 270 °C (via OCHEM). The entry for NCc1ccn[nH]1 lists mp 59 °C (via OCHEM). CCOC(=O)c1c(N)oc(C)c1C(C)=O has mp 136 °C (via OCHEM).

CN(C)S(=O)(=O)c1ccc(Cl)c([N+](=O)[O-])c1 is reported with mp 105 °C (via OCHEM). The entry for CC(=O)c1csc(N)n1 lists mp 171 °C (via OCHEM). O=Cc1cccc(C(F)(F)F)c1O has mp 56.5 °C (via OCHEM). For COc1ccc2cc(CO)ccc2c1 the data give mp 123 °C (via OCHEM). Cc1ccc(OCCCC(=O)O)cc1 is reported with mp 84 °C (via OCHEM). Listed for CC(C)=CCC/C(C)=C/CC/C(C)=C/CC/C(C)=C/CC/C(C)=C/CC/C(C)=C/CC/C(C)=C/CC1=C(C)C(=O)c2ccccc2C1=O: mp 54 °C (via PubChem). N#CCC(=O)c1c(Cl)cccc1Cl is reported with mp 64 °C (via OCHEM). NC(=O)Nc1ccc(N)cc1 is reported with mp 156 °C (via OCHEM).

The entry for O=C(O)c1ccc(F)cc1I lists mp 145 °C (via OCHEM). The entry for CON=Cc1ccc(C(=O)O)cc1 lists mp 184 °C (via OCHEM). Cc1noc(N)n1 is reported with mp 162 °C (via OCHEM). The entry for CC(C)CNC(N)=S lists mp 100 °C (via OCHEM). The entry for COC(=O)C(Cc1c[nH]c2ccccc12)NC(=O)CCl (stereo not drawn) lists mp 131 °C (via OCHEM). The entry for O=C(O)CCCSc1ccccc1 lists mp 67 °C (via OCHEM). The entry for O=C(O)CCCn1cncn1 lists mp 141 °C (via OCHEM). For N#CCc1csc(-c2ccccc2)n1 the data give mp 58 °C (via OCHEM).

CCN(CC(=O)O)C(=O)OC(C)(C)C has mp 87.5 °C (via OCHEM). Nc1nnc(-c2ccccc2)o1 has mp 244 °C (via OCHEM). COc1ccc(OCCCC(=O)O)cc1 has mp 103 °C (via OCHEM). The entry for Cc1ccc2nc(C)c(C)nc2c1 lists mp 92.5 °C (via OCHEM). O=C(O)C(O)c1ccccc1F (stereo not drawn) is reported with mp 114.5 °C (via OCHEM). For CC(C)c1ccc(C(=O)O)c(C(C)C)c1 the data give mp 100 °C (via OCHEM). O=S(=O)(Cl)c1ccc(S(=O)(=O)C(F)F)cc1 has mp 140 °C (via OCHEM). Listed for Cc1nn(-c2ccccc2)c(C)c1CC(=O)O: mp 111 °C (via OCHEM).

Cc1ccc2c(CCl)cc(=O)oc2c1 is reported with mp 171 °C (via OCHEM). CC(=O)Nc1sc2c(c1C(=O)O)CCCC2 has mp 211 °C (via OCHEM). The entry for O=C(O)CNC(=S)Nc1ccccc1 lists mp 160 °C (via OCHEM). The entry for COc1ccc2c(c1)C(=O)CCO2 lists mp 45 °C (via OCHEM). Nc1nc2cc(Br)ccc2o1 has mp 173 °C (via OCHEM). Listed for O=[N+]([O-])c1ccc2c(c1)S(=O)(=O)C=C2: mp 180 °C (via OCHEM). The entry for Cc1sc2[nH]c(=S)n(C)c(=O)c2c1C lists mp 289 °C (via OCHEM). Nc1cccc(Cl)c1N1CCOCC1 has mp 155 °C (via OCHEM).

COc1cc(OC)cc(C(=O)Nc2ccc(O)c(C(=O)O)c2)c1 is reported with mp 242 °C (via OCHEM). The entry for Cl.NC(=O)Nc1cccc(N)c1 lists mp 115 °C (via eChemPortal). CC(C)c1ccc(C(N)=S)cc1 has mp 149 °C (via OCHEM). For O=c1[nH]c2ccc(S(=O)(=O)Cl)cc2o1 the data give mp 153 °C (via OCHEM). The entry for CN(C)c1nc(Cl)c(C=O)s1 lists mp 110 °C (via OCHEM). Listed for O=C(O)c1nc(-c2ccccc2)n(-c2ccccc2)n1: mp 179 °C (via OCHEM).

A selection of 8 entries from above:

The entry for CON=Cc1ccc(C(=O)O)cc1 lists mp 184 °C (via OCHEM).
The entry for CN(C)S(=O)(=O)c1ccc(Cl)c([N+](=O)[O-])c1 lists mp 105 °C (via OCHEM).
The entry for O=c1[nH]c2ccc(S(=O)(=O)Cl)cc2o1 lists mp 153 °C (via OCHEM).
The entry for NCc1ccn[nH]1 lists mp 59 °C (via OCHEM).
The entry for Cl.NC(=O)Nc1cccc(N)c1 lists mp 115 °C (via eChemPortal).
The entry for Cc1sc2[nH]c(=S)n(C)c(=O)c2c1C lists mp 289 °C (via OCHEM).
The entry for CC(C)=CCC/C(C)=C/CC/C(C)=C/CC/C(C)=C/CC/C(C)=C/CC/C(C)=C/CC/C(C)=C/CC1=C(C)C(=O)c2ccccc2C1=O lists mp 54 °C (via PubChem).
The entry for CC(=O)Nc1sc2c(c1C(=O)O)CCCC2 lists mp 211 °C (via OCHEM).

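These are experimental values that the OPERA curators gathered from public databases to train and test their QSAR models. One number stands for a compound and property, with no spread given. Method, purity and exact conditions of the single measurements are not given. Where a salt, mixture or single isomer is drawn, the source does not say that exactly this form was tested. Unmarked limits or estimates from the upstream databases cannot be ruled out.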

Values as listed in the OPERA 2.9 repository of K. Mansouri.